Measurements published in patent US20250235486A1, “Method of Producing Insulin-Producing Cells” (Monash University, priority 2022, published 2025).

Tested on: Human pancreatic ductal epithelial cells
Assay: qRT-PCR after 2- and 7-day EZH2 inhibitor stimulation of human pancreatic ductal epithelial cells
Type: cell-based
Conditions: EPZ6438 1 μM
[1] = 2 days, GSK-126 10 μM, Triptolide 20 nM

SMILES: CCN(c1cc(-c2ccc(CN3CCOCC3)cc2)cc(C(=O)NCc2c(C)cc(C)[nH]c2=O)c1C)C1CCOCC1 [EPZ-6438, N-[(1,2-Dihydro-4,6-dimethyl-2-oxo-3-pyridinyl)methyl]-5-[ethyl(tetrahydro-2H-pyran-4-yl)amino]-4-methyl-4′-(4-morpholinylmethyl)[1,1′-biphenyl]-3-carboxamide]
- CK19 expression [1]: increase
- NGN3 mRNA levels [1]: significantly elevated
- insulin transcripts, mature mRNA (INS) [1]: elevations
- insulin transcripts, mature mRNA (INS) (7 days, GSK-126 10 μM, Triptolide 20 nM): maintained
- CK19 expression levels (day 7): decreased significantly
